Experimental data published in US10821160B2, “L-asparaginase variants and fusion proteins with reduced L-glutaminase activity and enhanced stability” (priority 2016, dated 2020).
Values joined by “and” are separate entries in the source; they are usually repeats but may differ in a detail not shown here. Identical values can stand only once.

Test system: NC(=O)C[C@H](N)C(=O)O
Assay: purified protein, by the assay type
Settings: other: Asn, 37° C

Erwinia chrysanthemi L-asparaginase, wild type (ErA-WT), SEQ ID NO:1 (Dickeya chrysanthemi)
Km: 48 µM and 44.2 ± 1.6 µM and 47.5 ± 3.5 µM
